Laboratory results taken from PubChem BioAssay AID574 (The Scripps Research Institute Molecular Screening Center, 2007).
Only a part is listed here, and it is no random draw. Active and inactive are the calls of the source.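 How the source made its calls: active means activation above a set limit, the screen-wide mean activation plus 3 SD (cut at about 8.5% in these data); inactive means the rest.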

Chains of the proteins cited; added tags and fusions are not shown. Lines headed by an entry give the natural chain unless they say otherwise; changes in a name come on top.
UniProt P28566: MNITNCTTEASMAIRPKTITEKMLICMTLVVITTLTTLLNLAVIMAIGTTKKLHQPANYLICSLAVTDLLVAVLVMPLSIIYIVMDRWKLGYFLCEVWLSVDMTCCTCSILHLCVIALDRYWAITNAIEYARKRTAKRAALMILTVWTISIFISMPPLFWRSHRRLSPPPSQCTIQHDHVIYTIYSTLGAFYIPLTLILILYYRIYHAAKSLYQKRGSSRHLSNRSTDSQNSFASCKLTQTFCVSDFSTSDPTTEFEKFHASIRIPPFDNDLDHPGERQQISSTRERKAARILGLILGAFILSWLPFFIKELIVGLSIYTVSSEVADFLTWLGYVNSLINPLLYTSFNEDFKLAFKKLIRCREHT

molecular target: 5-hydroxytryptamine receptor 1E (Homo sapiens) (UniProt P28566); assay: 5-HT1E receptor agonists, primary screen, cell-based, HTS (AID 574); conditions: CHO 5-HT1E Ga15 NFAT-bla reporter, FRET; at 6 µM; active compounds read high; 0% DMSO wells, 100% control agonist wells;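 further: 100% = positive control agonist at 1 µM giving full maximal response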

| SMILES | activation |
| --- | --- |
| CCOP1(=S)c2c(C)nn(CCC#N)c2N=C(c2ccc(F)cc2)N1C (stereo not given) | inactive: -0.1% |
| O=P(Nc1nccs1)(c1ccccc1)c1nc2ccccc2s1 (stereo not given) | inactive: 0.1% |
| CCOP1(=S)c2c(C)nn(CCC#N)c2N=C(c2ccccc2F)N1C (stereo not given) | inactive: 0.5% |
| Cc1cccc(OCC(=O)OC2CN3CCC2CC3)c1 (stereo not given) | inactive: -0.1% |
| O=P1(Nc2ccccn2)COc2ccccc2OC1 | inactive: 0.6% |
| Clc1n[nH]nc1-c1nn[nH][15n]1 | inactive: -0.6% |
| O=P1(Nc2ncccn2)COc2ccccc2OC1 | inactive: 0.1% |
| O=P1(Nc2ccc(Br)cn2)COc2ccccc2OC1 | inactive: 0.8% |
| Cc1ccc(OCC(=O)OC2CN3CCC2CC3)cc1 (stereo not given) | inactive: 0.2% |
| Cc1nn(-c2ccccc2)c2c1P(=O)(N1CCOCC1)N(C)C(c1ccccc1)=N2 (stereo not given) | inactive: 5.5% |
| COP1(=S)c2c(C)nn(CCC#N)c2N=C(c2ccc(F)cc2)N1C (stereo not given) | inactive: -0.1% |
| O=C(COc1ccccc1)OC1CN2CCC1CC2 (stereo not given) | inactive: -2.4% |
| O=C(OC1CN2CCC1CC2)C12CC3CC(CC(C3)C1)C2 (stereo not given) | inactive: -0.8% |
| Cc1c2non([O-])c-2c(C)[n+](=O)[n+]1[O-] | inactive: -0.9% |
| CCc1nc2c(n1)c1c(non1O)c1c2no[n+]1[O-] | inactive: -1.2% |
| O=C(OC1CN2CCC1CC2)c1cccc(Cl)c1 (stereo not given) | inactive: 1.7% |
| O=P(Nc1nccs1)(c1ccccc1)c1ccccc1 | inactive: -0.9% |
| c1nnnn1CCn1cnnn1 | inactive: -0.2% |
| O=P1(Nc2nc3ccc(Cl)cc3s2)COc2ccccc2O1 (stereo not given) | inactive: -0.3% |
| COC(=O)c1cc2c(s1)N=C(c1ccccc1)N(C)P2(=O)N1CCOCC1 (stereo not given) | inactive: 0.2% |
